Paper PMC4562309, “The identification of an integral membrane, cytochrome c urate oxidase completes the catalytic repertoire of a therapeutic enzyme” (2015)

Chains of the proteins cited; added tags and fusions are not shown. Lines headed by an entry give the natural chain unless they say otherwise; changes in a name come on top.
UniProt Q6DG85: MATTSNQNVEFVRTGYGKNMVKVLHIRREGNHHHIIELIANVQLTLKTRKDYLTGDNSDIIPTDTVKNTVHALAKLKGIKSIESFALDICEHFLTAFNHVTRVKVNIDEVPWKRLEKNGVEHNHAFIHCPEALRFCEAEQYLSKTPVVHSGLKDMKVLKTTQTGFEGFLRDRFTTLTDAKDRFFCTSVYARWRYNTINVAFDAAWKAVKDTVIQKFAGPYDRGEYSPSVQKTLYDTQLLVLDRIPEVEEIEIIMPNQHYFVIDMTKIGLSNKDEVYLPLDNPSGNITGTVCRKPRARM

Target: zfUox (Danio rerio, UniProt Q6DG85)
Assay: urate oxidase activity assay, in vitro
Conditions: substrate urate; assay details not told

SMILES: [N-]=[N+]=N
- IC50: 20 mM
